{
  "sequences": {"note": "The chains behind the UniProt entries cited, without tags or fusion partners. Where a name states a change or a piece, a line headed by the entry shows the natural chain unless it says otherwise.", "UniProt P78536": "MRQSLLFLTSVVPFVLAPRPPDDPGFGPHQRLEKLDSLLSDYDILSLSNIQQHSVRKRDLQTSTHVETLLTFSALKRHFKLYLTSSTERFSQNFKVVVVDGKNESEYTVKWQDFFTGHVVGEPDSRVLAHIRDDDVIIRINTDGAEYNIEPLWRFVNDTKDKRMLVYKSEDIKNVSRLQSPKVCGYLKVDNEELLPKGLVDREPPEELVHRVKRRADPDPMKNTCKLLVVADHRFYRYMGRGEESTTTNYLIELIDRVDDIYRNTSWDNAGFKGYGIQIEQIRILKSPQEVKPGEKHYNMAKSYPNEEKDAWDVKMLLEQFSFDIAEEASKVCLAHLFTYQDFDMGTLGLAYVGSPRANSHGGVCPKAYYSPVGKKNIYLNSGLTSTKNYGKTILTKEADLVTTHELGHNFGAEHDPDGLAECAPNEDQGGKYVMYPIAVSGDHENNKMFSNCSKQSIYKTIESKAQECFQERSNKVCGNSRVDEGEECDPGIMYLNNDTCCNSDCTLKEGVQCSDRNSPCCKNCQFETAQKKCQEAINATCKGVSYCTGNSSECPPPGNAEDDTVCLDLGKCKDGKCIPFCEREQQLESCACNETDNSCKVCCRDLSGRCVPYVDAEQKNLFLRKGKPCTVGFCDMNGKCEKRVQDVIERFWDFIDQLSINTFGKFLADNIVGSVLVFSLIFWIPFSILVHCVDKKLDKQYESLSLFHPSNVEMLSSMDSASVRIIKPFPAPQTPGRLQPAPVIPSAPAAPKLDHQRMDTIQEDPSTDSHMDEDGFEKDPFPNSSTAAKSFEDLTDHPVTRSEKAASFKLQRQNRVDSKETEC", "UniProt P14780": "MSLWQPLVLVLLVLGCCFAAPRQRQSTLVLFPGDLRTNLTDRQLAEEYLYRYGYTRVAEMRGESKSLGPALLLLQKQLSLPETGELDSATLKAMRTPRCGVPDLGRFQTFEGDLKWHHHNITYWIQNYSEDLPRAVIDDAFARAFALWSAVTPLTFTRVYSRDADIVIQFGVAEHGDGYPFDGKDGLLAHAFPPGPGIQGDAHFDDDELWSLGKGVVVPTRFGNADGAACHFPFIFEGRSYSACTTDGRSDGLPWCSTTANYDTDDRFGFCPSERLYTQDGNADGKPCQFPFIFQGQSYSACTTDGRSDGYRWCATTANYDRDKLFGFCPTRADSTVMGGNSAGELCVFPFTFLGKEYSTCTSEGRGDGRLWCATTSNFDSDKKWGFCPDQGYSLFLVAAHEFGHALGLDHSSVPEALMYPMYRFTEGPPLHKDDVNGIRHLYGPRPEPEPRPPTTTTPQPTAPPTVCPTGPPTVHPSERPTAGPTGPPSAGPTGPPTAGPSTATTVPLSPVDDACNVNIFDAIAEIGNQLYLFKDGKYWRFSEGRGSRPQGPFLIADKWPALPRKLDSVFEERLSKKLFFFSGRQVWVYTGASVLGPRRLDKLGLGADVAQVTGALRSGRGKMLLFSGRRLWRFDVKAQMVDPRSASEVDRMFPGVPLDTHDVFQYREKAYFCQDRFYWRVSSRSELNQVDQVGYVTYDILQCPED"},
  "source": "ChEMBL document CHEMBL1141066",
  "about": "“Acetylenic TACE inhibitors. Part 2: SAR of six-membered cyclic sulfonamide hydroxamates” (Bioorg Med Chem Lett, 2005)",
  "key": {"[1]": {"biological_target": "Disintegrin and metalloproteinase domain-containing protein 17 (Homo sapiens, UniProt P78536)", "assay": "Inhibitory activity against TACE[ADAM metallopeptidase domain 17] in isolated enzyme assay"}, "[2]": {"biological_target": "Matrix metalloproteinase-9 (Homo sapiens, UniProt P14780)", "assay": "Inhibitory activity against matrix metallopeptidase 9"}, "Collagenase 3": {"biological_target": "Collagenase 3 (Homo sapiens, UniProt P45452)", "assay": "Inhibitory activity against matrix metallopeptidase 13"}},
  "data": [
    {"smiles": "CC#CCOc1ccc(S(=O)(=O)N2CCSC(C)(C)C2C(=O)NO)cc1", "note": "(stereo not drawn)", "values": [
      {"measurement": "IC50", "setting": "[1]", "value": 8, "unit": "nM"},
      {"measurement": "IC50", "setting": "[2]", "value": 12, "unit": "nM"},
      {"measurement": "IC50", "setting": "Collagenase 3", "value": 3, "unit": "nM"}
    ]}
  ]
}
